Results as given in US8871751B2, “Compositions and methods relating to nuclear hormone and steroid hormone receptors including inhibitors of estrogen receptor alpha-mediated gene expression and inhibition of breast cancer” (The Board of Trustees of the University of Illinois, priority 2008, dated 2014).

Protein sequences, listed by entry. Tags and fused reporters are not part of them.
UniProt P10275, whole entry: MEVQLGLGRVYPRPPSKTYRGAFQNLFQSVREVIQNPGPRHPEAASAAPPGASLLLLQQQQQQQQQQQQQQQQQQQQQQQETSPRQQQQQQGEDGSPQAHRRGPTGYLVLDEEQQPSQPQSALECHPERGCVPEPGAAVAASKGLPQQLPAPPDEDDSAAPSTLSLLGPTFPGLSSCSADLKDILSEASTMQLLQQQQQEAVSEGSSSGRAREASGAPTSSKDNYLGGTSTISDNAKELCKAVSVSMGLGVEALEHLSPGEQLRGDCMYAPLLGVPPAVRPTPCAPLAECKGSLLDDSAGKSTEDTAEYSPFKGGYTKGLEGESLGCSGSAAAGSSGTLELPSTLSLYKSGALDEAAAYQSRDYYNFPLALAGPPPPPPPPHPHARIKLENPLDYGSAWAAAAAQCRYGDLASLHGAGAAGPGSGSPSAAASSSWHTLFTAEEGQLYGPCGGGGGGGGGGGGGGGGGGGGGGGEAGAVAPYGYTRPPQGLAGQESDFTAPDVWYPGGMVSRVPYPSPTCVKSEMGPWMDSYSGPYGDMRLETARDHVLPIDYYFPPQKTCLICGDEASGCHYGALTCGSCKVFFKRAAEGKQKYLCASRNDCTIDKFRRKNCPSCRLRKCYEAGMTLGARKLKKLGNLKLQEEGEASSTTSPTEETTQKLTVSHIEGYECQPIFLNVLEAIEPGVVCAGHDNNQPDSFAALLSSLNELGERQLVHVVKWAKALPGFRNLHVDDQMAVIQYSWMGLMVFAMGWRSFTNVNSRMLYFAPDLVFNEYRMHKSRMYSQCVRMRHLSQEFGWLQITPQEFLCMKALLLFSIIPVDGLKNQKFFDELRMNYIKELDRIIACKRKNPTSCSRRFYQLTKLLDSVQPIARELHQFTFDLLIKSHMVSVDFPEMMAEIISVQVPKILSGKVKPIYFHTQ
UniProt P06401, whole entry: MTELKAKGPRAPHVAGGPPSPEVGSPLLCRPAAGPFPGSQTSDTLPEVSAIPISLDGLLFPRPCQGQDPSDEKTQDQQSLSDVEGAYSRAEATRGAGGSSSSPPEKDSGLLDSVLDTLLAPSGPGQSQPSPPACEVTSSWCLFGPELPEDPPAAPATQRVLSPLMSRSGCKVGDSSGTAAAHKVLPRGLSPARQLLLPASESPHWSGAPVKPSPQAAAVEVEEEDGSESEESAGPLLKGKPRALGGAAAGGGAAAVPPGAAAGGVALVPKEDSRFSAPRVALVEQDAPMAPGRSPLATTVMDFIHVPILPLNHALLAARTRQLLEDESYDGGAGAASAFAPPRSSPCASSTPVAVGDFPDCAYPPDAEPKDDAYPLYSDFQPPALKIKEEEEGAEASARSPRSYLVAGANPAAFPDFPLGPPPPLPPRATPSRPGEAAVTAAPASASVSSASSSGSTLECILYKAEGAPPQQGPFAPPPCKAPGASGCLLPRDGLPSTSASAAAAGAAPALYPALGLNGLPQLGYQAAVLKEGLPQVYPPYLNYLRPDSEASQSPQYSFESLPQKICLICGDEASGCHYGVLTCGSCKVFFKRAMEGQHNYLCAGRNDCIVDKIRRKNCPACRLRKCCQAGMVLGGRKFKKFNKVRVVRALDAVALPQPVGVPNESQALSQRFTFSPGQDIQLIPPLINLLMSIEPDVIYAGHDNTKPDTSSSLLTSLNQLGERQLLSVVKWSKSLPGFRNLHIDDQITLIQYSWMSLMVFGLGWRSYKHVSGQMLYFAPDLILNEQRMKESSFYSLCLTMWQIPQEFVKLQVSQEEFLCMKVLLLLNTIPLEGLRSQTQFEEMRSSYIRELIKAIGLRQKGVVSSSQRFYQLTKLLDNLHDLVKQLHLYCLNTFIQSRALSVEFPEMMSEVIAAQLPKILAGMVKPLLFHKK
UniProt P03372, whole entry: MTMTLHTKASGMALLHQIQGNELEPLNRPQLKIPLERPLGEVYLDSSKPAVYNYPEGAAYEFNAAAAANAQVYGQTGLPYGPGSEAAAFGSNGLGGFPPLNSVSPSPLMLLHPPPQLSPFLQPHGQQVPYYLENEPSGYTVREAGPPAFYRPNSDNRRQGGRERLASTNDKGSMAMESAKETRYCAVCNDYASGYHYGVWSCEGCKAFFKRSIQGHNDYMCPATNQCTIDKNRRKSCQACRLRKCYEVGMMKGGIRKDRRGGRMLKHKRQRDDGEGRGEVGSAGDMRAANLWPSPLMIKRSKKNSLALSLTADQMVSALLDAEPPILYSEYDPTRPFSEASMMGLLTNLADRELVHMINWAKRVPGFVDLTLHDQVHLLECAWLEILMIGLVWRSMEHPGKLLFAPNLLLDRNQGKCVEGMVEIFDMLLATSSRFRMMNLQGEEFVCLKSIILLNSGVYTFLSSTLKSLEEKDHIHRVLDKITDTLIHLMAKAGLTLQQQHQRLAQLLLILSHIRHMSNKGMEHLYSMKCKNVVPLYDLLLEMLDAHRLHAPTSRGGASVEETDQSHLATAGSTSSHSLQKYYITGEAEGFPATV

How the values were obtained:
[1] = molecular target: human androgen receptor (AR) binding to flARE (Homo sapiens, UniProt P10275); test: FAMA: inhibition of AR binding to flcARE; conditions: read-out: IC50 AR, binding to HRE, 5 concentrations 0.5-10 μM, sequential method
[2] = molecular target: human PR-B binding to flPRE (Homo sapiens, UniProt P06401); test: FAMA: inhibition of PR binding to flcPRE; conditions: read-out: IC50 PR, binding to HRE, 5 concentrations 0.5-10 μM, sequential method
[3] = molecular target: human ERα binding to flcERE (Homo sapiens, UniProt P03372); test: FAMA: inhibition of ERα binding to flcERE; conditions: read-out: IC50 ERα, binding to HRE, 5 concentrations 0.5-10 μM, sequential method

IC50 [1]: > 10 µM
IC50 [2]: > 10 µM
IC50 [3]: 2 µM
SMILES: CC(C)(C)c1cc2c(O)c(c1)Cc1cc(C(C)(C)C)cc(c1O)Cc1cc(C(C)(C)C)cc(c1O)Cc1cc(C(C)(C)C)cc(c1O)Cc1cc(C(C)(C)C)cc(c1O)Cc1cc(C(C)(C)C)cc(c1O)Cc1cc(C(C)(C)C)cc(c1O)Cc1cc(C(C)(C)C)cc(c1O)C2
